According to ChEMBL document CHEMBL1131192, “Conformational analysis and automated receptor docking of selective arylacetamide-based kappa-opioid agonists” (1998):

Experiments:
[1] = test system: Kappa-type opioid receptor (Homo sapiens), P41145 [UNDEFINED MUTATION]; assay: Compound was tested for the change in the Opioid receptor kappa 1 binding affinity (Ki(mut)/Ki(wild) for T109A point mutations.
[2] = test system: Kappa-type opioid receptor (Homo sapiens), P41145 [UNDEFINED MUTATION]; assay: Compound was tested for the change in the Opioid receptor kappa 1 binding affinity (Ki(mut)/Ki(wild) for Y119A point mutations.
[3] = test system: Kappa-type opioid receptor (Homo sapiens), P41145 [UNDEFINED MUTATION]; assay: Compound was tested for the change in the Opioid receptor kappa 1 binding affinity (Ki(mut)/Ki(wild) for D138A point mutations.
[4] = test system: Kappa-type opioid receptor (Homo sapiens), P41145 [UNDEFINED MUTATION]; assay: Compound was tested for the change in the Opioid receptor kappa 1 binding affinity (Ki(mut)/Ki(wild) for G319V point mutations.
[5] = test system: Kappa-type opioid receptor (Homo sapiens), P41145 [UNDEFINED MUTATION]; assay: Compound was tested for the change in the Opioid receptor kappa 1 binding affinity (Ki(mut)/Ki(wild) for I294K point mutations.
[6] = test system: Kappa-type opioid receptor (Homo sapiens), P41145 [UNDEFINED MUTATION]; assay: Compound was tested for the change in the Opioid receptor kappa 1 binding affinity (Ki(mut)/Ki(wild) for S123A point mutations.
[7] = test system: Kappa-type opioid receptor (Homo sapiens), P41145 [UNDEFINED MUTATION]; assay: Compound was tested for the change in the Opioid receptor kappa 1 binding affinity (Ki(mut)/Ki(wild) for I294A point mutations.
[8] = test system: Kappa-type opioid receptor (Homo sapiens), P41145 [UNDEFINED MUTATION]; assay: Compound was tested for the change in the Opioid receptor kappa 1 binding affinity (Ki(mut)/Ki(wild) for D105N point mutations.
[9] = test system: Kappa-type opioid receptor (Homo sapiens), P41145 [UNDEFINED MUTATION]; assay: Compound was tested for the change in the Opioid receptor kappa 1 binding affinity (Ki(mut)/Ki(wild) for E297A point mutations.
[10] = test system: Kappa-type opioid receptor (Homo sapiens), P41145 [UNDEFINED MUTATION]; assay: Compound was tested for the change in the Opioid receptor kappa 1 binding affinity (Ki(mut)/Ki(wild) for H291A point mutations.
[11] = test system: Kappa-type opioid receptor (Homo sapiens), P41145 [UNDEFINED MUTATION]; assay: Compound was tested for the change in the Opioid receptor kappa 1 binding affinity (Ki(mut)/Ki(wild) for A298H point mutations.
[12] = molecular target: Kappa-type opioid receptor (Homo sapiens) (UniProt P41145); assay: Compound was tested for the change in the Opioid receptor kappa 1 binding affinity (Ki(mut)/Ki(wild) for D105N point mutations; No binding
[13] = molecular target: Kappa-type opioid receptor (Homo sapiens) (UniProt P41145); assay: Compound was tested for the change in the Opioid receptor kappa 1 binding affinity (Ki(mut)/Ki(wild) for D138A point mutations; No binding

Row | Structure (SMILES) | Ratio [1] | Ratio [2] | Ratio [3] | Ratio [4] | Ratio [5] | Ratio [6] | Ratio [7] | Ratio [8] | Ratio [9] | Ratio [10] | Ratio [11] | Ratio [12] | Ratio [13]
1 | CN(C(=O)Cc1cccc2occc12)[C@H]1CC[C@@]2(CCCO2)C[C@@H]1N1CCCC1 | 1.2 | 1.9 | 110 | 6.3 | 160 | 0.6 | 9.8 | 0.4 | 0.7 | 6.6 | 0.2 | – | –
2 | CN(C(=O)Cc1ccccc1)[C@H](CN1CCCC1)c1ccccc1 | – | – | 45 | 28 | 18 | – | 1.5 | – | 0.3 | 2.4 | 0.1 | – | –
3 | CN(C(=O)Cc1ccccc1)[C@H]1CC[C@@]2(CCCO2)C[C@@H]1N1CCCC1 | – | – | – | – | – | – | – | – | – | – | – | inactive | inactive
4 | CN(C(=O)Cc1ccc(Cl)c(Cl)c1)C1CCCCC1N1CCCC1 (configuration not stated) | – | – | – | – | – | – | – | 28 | – | – | – | – | inactive

Activity calls are given as the source filed them. No cut-off for these calls is given here.
